Experimental data published in EP4552657A1, “RADIOPHARMACEUTICAL COMPLEXES AND COMBINATIONS” (priority 2023, dated 2025).

Legend:
[1] = tested on: HER2-expressing cell lines JIMT-1, MCF-7, T-47D and ZR-75-1; settings: 2, 10 and 20 kBq/µg; 6 days; vs isotype control at 20 kBq/µg
[2] = tested on: JIMT-1 cells; settings: 20 kBq/µg; 30 min, 2 hrs and 18 hrs of exposure; viability at day 6; vs isotype control
[3] = tested on: JIMT-1 and SKOV-3 cells; settings: 20 kBq/µg; 50 µg/ml Trastuzumab added 2 hours before; 6 days
[4] = tested on: HER2-expressing breast carcinoma xenograft model JIMT-1; settings: 500 kBq/kg IV
Experimental: Animals were pre-treated with 200 µg/mouse unspecific IgG2a antibody 24 h prior to hot dosing.

[5] = tested on: ZR-75-1 breast cancer model; assay: In vivo antitumor efficacy in ZR-75-1 model; design: species or system mice
Experimental: The antitumor efficacy of ^225Ac-Macropa-Trastuzumab was assessed in the ZR-75-1 breast cancer model. Female NMRI nu/nu mice were implanted s.c. with estradiol pellets and were inoculated subcutaneously with 5×10^6 ZR-75-1 cells 1-2 days later.
Animals were randomized into treatment groups at an average tumor size of 169 mm^3 (n=12) and treatment was started.

Row | Substance | specificity of cytotoxicity [1] | cytotoxicity [2] | cytotoxicity and its inhibition by Trastuzumab [3] | uptake in liver, spleen, and kidneys ([4]; all timepoints (24, 72, 168, 336 hours)) | uptake in femur ([4]; all timepoints) | tumor uptake and retention ([4]; over 336 h) | anti-tumor efficacy ([5]; mouse, in vivo) | anti-tumor efficacy ([5]; 225Ac conjugate 125 or 250 kBq/kg day 0 and 28 i.v., Enhertu 2.7 or 5.4 mg/kg day 0 and 21 i.v.)
1 | Ac-225-macropa-Trastuzumab: Ac-225 macropa complex bound to the anti-HER2 monoclonal antibody Trastuzumab via a Lysine residue | increasing specificity with increasing specific activity | strong and specific cytotoxicity | strong cytotoxicity was achieved which was totally inhibited in the presence of cold Trastuzumab | less than 5 %ID/g | less than 2 %ID/g | high tumor uptake and retention over 336 h | very strong and durable anti-tumor efficacy with complete remissions until end of the study in the higher dose group (250 kBq/kg) | –
2 | fam-trastuzumab deruxtecan-nxki [Enhertu, reference compound] | – | – | – | – | – | – | – | onset of tumor regrowth at -day 50
